{"sequences": {"note": "Amino acid sequences for entries named in this document (tags omitted). Residues count along the entry.", "UniProt P49582, 23-502": "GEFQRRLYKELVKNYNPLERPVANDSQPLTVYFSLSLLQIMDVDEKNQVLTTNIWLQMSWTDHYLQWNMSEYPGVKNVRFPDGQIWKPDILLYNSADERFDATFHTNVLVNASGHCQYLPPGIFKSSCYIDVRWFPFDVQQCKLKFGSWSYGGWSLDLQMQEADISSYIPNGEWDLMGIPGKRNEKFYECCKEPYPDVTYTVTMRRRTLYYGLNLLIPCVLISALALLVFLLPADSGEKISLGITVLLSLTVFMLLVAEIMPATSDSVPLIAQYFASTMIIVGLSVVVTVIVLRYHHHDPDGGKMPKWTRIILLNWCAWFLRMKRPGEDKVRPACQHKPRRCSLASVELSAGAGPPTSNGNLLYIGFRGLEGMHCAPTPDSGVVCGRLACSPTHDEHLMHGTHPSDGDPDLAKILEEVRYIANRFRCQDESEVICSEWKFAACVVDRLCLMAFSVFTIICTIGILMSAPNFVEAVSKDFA"}, "source": "paper PMC3527104", "about": "(Bioorganic & medicinal chemistry, 2012)", "key": {"α7-nAChRs": {"target": "α7-nAChRs (Mus musculus, UniProt P49582)", "settings": "mice, biodistribution studies"}, "CEREP profiling": {"test_system": "CEREP profiling", "settings": "cited from earlier work"}, "5HT3 receptors": {"test_system": "5HT3 receptors", "settings": "cited from earlier work"}}, "data": [{"smiles": "[11CH3]N1CC2CN(c3ccc(-c4ccc5[nH]ccc5c4)nc3)CC21", "note": "(racemic) [[^11C]rac-1, 5-(5-(6-[^11C]methyl-3,6-diazabicyclo[3.2.0]heptan-3-yl)pyridin-2-yl)-1H-indole]", "values": [{"measurement": "blood-brain barrier penetration", "setting": "α7-nAChRs", "result": "penetrates the blood-brain barrier"}]}, {"smiles": "CN1C[C@@H]2CN(c3ccc(-c4ccc5[nH]ccc5c4)nc3)C[C@@H]21", "note": "[(1R,5R)-1, 5-(5-((1R,5R)-6-methyl-3,6-diazabicyclo[3.2.0]heptan-3-yl)pyridin-2-yl)-1H-indole]", "values": [{"measurement": "interaction in the CEREP profiling", "setting": "CEREP profiling", "result": "none or weak interaction"}, {"measurement": "interaction at 5HT3 receptors", "setting": "5HT3 receptors", "result": "no interaction"}]}]}
